Results from PMC6405850.

Chains of the proteins cited; added tags and fusions are not shown. Lines headed by an entry give the natural chain unless they say otherwise; changes in a name come on top.
UniProt P01009: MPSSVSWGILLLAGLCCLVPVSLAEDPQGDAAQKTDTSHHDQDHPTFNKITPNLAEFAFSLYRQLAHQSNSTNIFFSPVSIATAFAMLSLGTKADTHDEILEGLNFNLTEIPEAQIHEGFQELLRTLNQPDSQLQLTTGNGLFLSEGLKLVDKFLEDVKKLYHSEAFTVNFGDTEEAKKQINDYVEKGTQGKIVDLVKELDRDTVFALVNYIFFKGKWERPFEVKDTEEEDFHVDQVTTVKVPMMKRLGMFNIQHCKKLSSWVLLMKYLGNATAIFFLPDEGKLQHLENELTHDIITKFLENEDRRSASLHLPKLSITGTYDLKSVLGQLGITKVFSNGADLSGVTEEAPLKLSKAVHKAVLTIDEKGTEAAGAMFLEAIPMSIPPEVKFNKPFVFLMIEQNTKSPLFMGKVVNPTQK

Molecular target: bovine trypsin (bovine)

- stoichiometry of inhibition (SI) of trypsin after denaturation in 6 M guanidine hydrochloride and refolding of the serpin (210 nM trypsin, 0-450 nM serpin): 2
- stoichiometry of inhibition (SI): residual trypsin activity (105 nM trypsin, 0-200 nM serpin, 30 min at 37 °C) on Na-benzoyl-L-arginine 4-nitroanilide: 1.64
Substance: conserpin-AATRCL (from UniProt P01009 1-418) (designed binder)
